Rows were chosen to be rich in hits. Some 1.2% of all compounds tested hit in one or more screens of this group.
Rce1 inhib: blocks yeast Ras-converting enzyme. yeast membranes, quenched prenylated peptide cleavage fluorescence. 0.27% of 290,000 active. calls only. AID 2563. Q03530;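 active = fall in fluorescence gain of 50% or more versus controls, with final raw signal at or below 3038400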;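 also: plate controls were neutral control wells for no effect and wells lacking membranes for full effect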
Tb MetRS inh: blocks T. brucei methionyl-tRNA synthetase activity; purified T. brucei MetRS, ATP depletion, Kinase-Glo luminescence; inhibition, % at 11.9 µM; 0.4% of 360,000 active; AID 624268;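 active = inhibition above a per-plate cutoff of the control wells' mean inhibition plus 3 SD, cut at about 5.5% in these data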;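 also: 0% = DMSO wells median and 100% = median of wells with control inhibitor compound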
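Dosing: 11.9 µM compound single dose, 0.9% DMSO; Assay system: purified T. brucei MetRS enzyme; Measured by: Kinase-Glo luciferase luminescence reporting remaining unconsumed ATP; Schedule: 15 min plus 2 h at 25 °C.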
Pemphigus Ab inh: inhibitors of pemphigus antibody binding to human desmoglein-3. 0.48% of 310,000 active. DSG3-coupled beads, scFv-anti-DSG3-GFP binding, flow cytometry; hits give low values. binding (percent of control), % at 10 µM;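 active = binding more than 3 SD below its plate's average and above zero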;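 also: hits lower antibody fragment binding to DSG3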
Arr AP2 block: blocks beta-arrestin peptide binding to AP2 adaptin; inhibition, % at 10 µM; 0.31% of 340,000 active; AID 504490; FITC-arrestin peptide / GST-AP2 beads, flow cytometry; AP2 beta2 appendage carries R879A mutation;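 active = inhibition above a set limit, near 3 SD of compounds lacking own fluorescence, cut at about 54% in these data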;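 also: plate controls were DMSO wells for no effect and 5 µM unlabelled arrestin peptide for full effect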
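Assay system: GST-AP2 R879A bound to glutathione beads, E. coli-expressed; Medium: PBS with 0.05% Tween 20 and 0.1% BSA; Also added: fluorescein-tagged arrestin peptide at 50 nM final; Timing: 12 min plus 1 h, RT; Measured by: flow cytometry, FL1 (488/535 nm); Evaluation: percent drop in bead-associated FITC signal.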
UUG fidelity: modulators of start codon recognition fidelity in yeast; AID 602363; activity score, % at 18.7 µM; S. cerevisiae UUG-firefly luciferase reporter, luminescence/redox ratio; actives 0.13% (n = 350,000);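 active = replicate mean at a twofold rise or more, about +100% in these data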;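 note: firefly luciferase made from a UUG start codon reports start codon fidelity; reporter light over untreated wells divided by growth signal over untreated wells; some hits fall short of that in this replicate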
* marks the source's active call; other numbers are inactive results; i = inactive; . = no result; + = active, no number.

| nr | compound | Rce1 inhib | Tb MetRS inh | Pemphigus Ab inh | Arr AP2 block | UUG fidelity |
| --- | --- | --- | --- | --- | --- | --- |
| 1 | CCOc1ccc(CC(=O)NNC(=S)NCCc2ccccc2)cc1 | i | -0.1 | 66.2* | -12.5 | . |
| 2 | CCOc1ccc(C(=O)NCCc2ccccc2)cc1 | i | -1.3 | 117.6 | 4.4 | -64.6 |
| 3 | CCCN(C)C[C@H]1Oc2ncc(-c3cccc(C#N)c3)cc2C(=O)N([C@H](C)CO)C[C@H]1C | . | . | . | . | -5.9 |
| 4 | NC(=O)CC(NC(=O)Cc1ccc(Br)cc1)c1ccc(NC2CCCC2)c([N+](=O)[O-])c1 (stereo not given) | i | -0.3 | 1.8* | 26.2 | -27.9 |
| 5 | CCCn1c(SC(C)C(=O)NC2CCCC(C)C2C)n[nH]c1=O (stereo not given) | . | -0.5 | 78.8* | . | -6.0 |
| 6 | CC(Sc1n[nH]c(=O)n1Cc1ccccc1)C(=O)NC1CCCCC1C (stereo not given) | i | -0.5 | 99.6 | 1.2 | . |
| 7 | COCC(=O)Nc1ccc2c(c1)[C@H]1C[C@@H](CC(=O)NCc3cc(F)ccc3F)O[C@H](CO)[C@H]1O2 | . | . | . | . | 2.8 |
| 8 | O=C(Nc1cccnc1Oc1ccc(Cl)cc1)c1cccc2ccccc12 | + | 0.8 | . | 11.1 | -3.1 |

Further entries
| nr | compound | Rce1 inhib | Tb MetRS inh | Pemphigus Ab inh | Arr AP2 block | UUG fidelity |
| --- | --- | --- | --- | --- | --- | --- |
| 9 | NC(=O)c1cccnc1Oc1ccc(Cl)cc1 | i | 0.1 | 116.6 | 7.8 | -9.4 |
| 10 | COc1ccc(C(=O)NN=C(Cc2ccccc2)Cc2ccccc2)cc1OC | i | -0.1 | 0.8* | -3.6 | . |
| 11 | CCn1c(N2CCN(S(=O)(=O)c3ccc(Cl)cc3)CC2)nc2ccccc21 | i | 0.3 | -37.1* | 13.2 | . |
| 12 | CCn1c(N2CCN(S(=O)(=O)c3ccc(F)cc3)CC2)nc2ccccc21 | i | -0.6 | 107.0 | 1.7 | -18.7 |
| 13 | CC1CCc2c(sc(NC(=O)/C=C/c3cccs3)c2C(=O)O)C1 (stereo not given) | i | -0.6 | 59.5* | 4.3 | -14.4 |
| 14 | CC1CCc2c(sc(NC(=O)c3ccco3)c2C(=O)O)C1 (stereo not given) | i | -0.1 | 101.9 | 26.9 | -7.7 |
| 15 | CCOc1ccc(S(=O)(=O)NC(Cc2cnc[nH]2)C(=O)O)cc1 (stereo not given) | i | -1.4 | 8.8* | -7.3 | . |
| 16 | Nc1ccc(C(=O)OCC(=O)NC(=O)c2ccccc2)cc1[N+](=O)[O-] | i | 0.2 | 97.8 | -2.5 | -7.0 |

Next section:
| nr | compound | Rce1 inhib | Tb MetRS inh | Pemphigus Ab inh | Arr AP2 block | UUG fidelity |
| --- | --- | --- | --- | --- | --- | --- |
| 17 | O=C(COC(=O)c1ccc(Cl)cc1[N+](=O)[O-])NC(=O)c1ccccc1 | i | -0.2 | 49.3* | -1.2 | -9.2 |
| 18 | CN(C)c1ccc(/C=N/N=C2/SC(CC(=O)O)C(=O)N2c2ccc(O)cc2)cc1 (stereo not given) | i | 0.0 | 106.8 | 12.3 | . |
| 19 | CN(C1=NC(=O)C(CC(=O)O)S1)c1ccc(O)cc1 (stereo not given) | i | -0.5 | 22.8* | 43.9 | . |
| 20 | COCC(=O)N1C[C@H]2[C@@H](c3ccccc31)[C@@H](CO)N2C(=O)C1CC1 | . | . | . | . | -14.2 |
| 21 | CC(=O)c1ccc(NC(=O)Cn2cnc(S(=O)(=O)N3CCc4ccccc43)c2)cc1 | i | -0.9 | 79.2* | 0.7 | -0.6 |
| 22 | CC(=O)c1ccc(NC(=O)Cn2cnc(S(=O)(=O)N3CCCC3)c2)cc1 | i | -0.4 | . | 9.5 | -15.1 |
| 23 | CCN(Cc1ccccc1)S(=O)(=O)c1ccc(C(=O)N(CCCN(C)C)c2nc3cc(C)cc(C)c3s2)cc1 | + | -0.4 | 117.6 | 15.8 | -3.8 |
| 24 | Cc1cc(C)c2sc(N(CCCN(C)C)C(=O)c3ccc(S(=O)(=O)N(C)Cc4ccccc4)cc3)nc2c1 | i | -0.4 | 111.9 | -6.2 | -2.1 |

The results go on.
| nr | compound | Rce1 inhib | Tb MetRS inh | Pemphigus Ab inh | Arr AP2 block | UUG fidelity |
| --- | --- | --- | --- | --- | --- | --- |
| 25 | COc1ccc(OC)c2sc(NC(=O)C3=COCCO3)nc12 | i | -0.6 | 104.6 | -11.5 | -0.7 |
| 26 | COc1ccc(C)c2sc(NC(=O)C3=COCCO3)nc12 | + | -0.4 | 111.3 | -2.4 | -3.3 |
| 27 | CC(=O)c1cc2c(cc1NC(=O)c1ccc(Cl)cc1)OCCO2 | i | -0.6 | 31.1* | 27.1 | -0.8 |
| 28 | C[C@@H]1CN([C@H](C)CO)C(=O)c2cccc(NS(C)(=O)=O)c2O[C@H]1CN(C)Cc1ccc(C(=O)O)cc1 | . | . | . | . | -5.9 |
| 29 | O=C(NCc1ccc(Cl)cc1)c1ccncc1 | i | 0.0 | 83.3* | 11.8 | -5.2 |
| 30 | O=C(NCc1ccc(F)cc1)c1ccncc1 | i | 0.0 | 135.0 | -1.6 | -12.1 |
| 31 | COc1ccc(N2CCN(C(=O)COCc3cc(-c4ccc5c(c4)OCO5)on3)CC2)cc1 | i | -0.1 | 71.3* | -2.8 | -11.2 |
| 32 | C[C@@H]1CN([C@@H](C)CO)C(=O)c2cc(NS(=O)(=O)c3ccc(F)cc3)ccc2O[C@H]1CN(C)CC1CC1 | . | . | . | . | 22.7 |

A draw from above in order of formula weight, highest first:
| nr | compound | Rce1 inhib | Tb MetRS inh | Pemphigus Ab inh | Arr AP2 block | UUG fidelity |
| --- | --- | --- | --- | --- | --- | --- |
| 28 | C[C@@H]1CN([C@H](C)CO)C(=O)c2cccc(NS(C)(=O)=O)c2O[C@H]1CN(C)Cc1ccc(C(=O)O)cc1 | . | . | . | . | -5.9 |
| 31 | COc1ccc(N2CCN(C(=O)COCc3cc(-c4ccc5c(c4)OCO5)on3)CC2)cc1 | i | -0.1 | 71.3* | -2.8 | -11.2 |
| 29 | O=C(NCc1ccc(Cl)cc1)c1ccncc1 | i | 0.0 | 83.3* | 11.8 | -5.2 |
| 30 | O=C(NCc1ccc(F)cc1)c1ccncc1 | i | 0.0 | 135.0 | -1.6 | -12.1 |

High-throughput results as filed in PubChem.
